# Measured values as given in US20180050114A1, “HER2 APTAMER-ANTICANCER DRUG COMPLEX FOR CANCER CELL CHEMOTHERAPY” (priority 2016, published 2018).
# System: BT474-Tra and BT474 cell lines
# Assay: MTS cell viability of Trastuzumab-resistant cell line
# Assay type: cell-based
# Conditions: 0 to 200 μg/ml, 48 hr; BT474-Tra versus BT474 (FIG. 8)
# Method: (1) HER2-positive breast cancer BT474 cells were subcultured at intervals of 3 days using a culture medium containing 4 μg/ml of Trastuzumab, after which resistant clones, which were continuously exposed to Trastuzumab for a total of 8 months, were selected, thus establishing a Trastuzumab-resistant cell line (BT474-Tra).
# (2) BT474 and BT474-Tra cell lines were treated with Trastuzumab at a concentration of 0 to 200 μg/ml for 48 hr, after which the cell viability was measured. For the BT474 and BT474-Tra cell lines, the expression of p185HER2, p95HER2, p-HER2, p-p95HER2, HERS, p-HER3, total-AKT, p-AKT, and PARP was analyzed via Western blot. Cell viability was measured using a CellTiter 96* Aqueous One Solution Cell Proliferation Assay [MTS, 3-(4,5-dimethylthiazol-2-yl)-5-(3-carboxymethoxyphenyl)-2-(4-sulfophenyl)-2H-tetrazolium], and the amount of produced formazan was determined by measuring absorbance at 490 nm using a Spectramax Plus 384 microplate analyzer. In the Western blot, the above cells were lysed in a lysis buffer (30 mM NaCl, 0.5% Triton X-100, 50 mM Tris-HCl; pH 7.4) containing phosphatase and a protease inhibitor, and the supernatant was collected and then the protein was […] using a Bradford protein assay kit. […] Signal intensity was measured using an Enhanced Chemiluminescence Kit and an X-ray film, and quantified with AlphaEaseFC software.
substance,measurement,value
Trastuzumab: existing drug used to establish and test the Trastuzumab-resistant cell line BT474-Tra,"sensitivity to Trastuzumab (cell viability, MTS)",lower sensitivity to Trastuzumab than the BT474 cell line
